Measured values taken from PubChem BioAssay AID1259400 (National Center for Advancing Translational Sciences (NCATS), 2018).
Only a part is listed here, and it is no random draw. Active and inactive are the calls of the source.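 How the source made its calls: active means activity change of -60% or lower, but not beyond a set lower limit; inconclusive means change between -60% and -40%, or beyond the set limit; inactive means change above -40%.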

The chains behind the UniProt entries cited, without tags or fusion partners.
UniProt Q9HBX9, whole entry: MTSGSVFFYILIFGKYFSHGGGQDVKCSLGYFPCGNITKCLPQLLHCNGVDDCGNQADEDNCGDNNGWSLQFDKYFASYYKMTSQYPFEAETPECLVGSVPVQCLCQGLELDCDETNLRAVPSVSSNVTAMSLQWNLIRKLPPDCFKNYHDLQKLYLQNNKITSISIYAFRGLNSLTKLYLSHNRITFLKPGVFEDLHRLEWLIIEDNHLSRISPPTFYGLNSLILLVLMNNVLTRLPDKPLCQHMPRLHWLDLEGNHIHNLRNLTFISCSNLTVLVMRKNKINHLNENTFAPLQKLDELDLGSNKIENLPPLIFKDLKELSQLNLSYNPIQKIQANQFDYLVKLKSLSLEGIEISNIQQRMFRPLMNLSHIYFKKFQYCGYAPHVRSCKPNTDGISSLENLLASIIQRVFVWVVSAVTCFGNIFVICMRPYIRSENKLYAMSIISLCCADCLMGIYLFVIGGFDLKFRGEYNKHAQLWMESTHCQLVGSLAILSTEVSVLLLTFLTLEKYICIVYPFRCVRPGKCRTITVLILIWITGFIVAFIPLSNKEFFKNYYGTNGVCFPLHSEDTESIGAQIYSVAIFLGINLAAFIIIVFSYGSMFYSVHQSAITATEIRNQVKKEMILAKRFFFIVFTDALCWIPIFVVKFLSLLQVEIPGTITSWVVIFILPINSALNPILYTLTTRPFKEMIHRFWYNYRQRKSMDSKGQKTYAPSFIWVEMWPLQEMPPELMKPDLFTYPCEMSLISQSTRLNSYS

Each compound was assayed against Relaxin receptor 1 (Homo sapiens) (UniProt Q9HBX9) (assay: qHTS Assay for Antagonists of the Relaxin Receptor RXFP1). Settings: HEK293-RXFP1, relaxin-stimulated cAMP HTRF, 30 min; at 57.5 µM; hits give low values.
Excerpt: The relaxin hormone is involved in the variety of biological functions in normal tissues and diseases. The role of relaxin is well-established in female reproduction and parturition, mammary gland and endometrial development, maintenance of myometrial quiescence during pregnancy. Relaxin signaling through its G protein-coupled receptor (GPCR) RXFP1 results in ECM remodeling through regulation of collagen deposition, cell invasiveness, proliferation and overall tissue homeostasis. […] Recombinant human relaxin (rhRlx) is currently being tested in clinical trials as a protective agent in congestive heart failure, in treating severe preeclampsia, and as an anti-fibrotic agent in various organs. […] Upon relaxin binding RXFP1 activation leads to the activation of adenylate cyclase (AC) via G?s. cAMP will activate PKA, which phosphorylates many signaling proteins. Thus, detection of cAMP increase is an easy and reliable indication of relaxin receptor activation. To screen for antagonists of the relaxin receptor, a HEK293T cell line stably transfected with RXFP1 was used. RXFP1 activation by relaxin in presence of various concentrations of tested compounds was assayed by changes in cAMP levels as detected with a time-resolved fluorescence energy transfer (TR-FRET) cAMP detection kit.
For the primary screening, we used HTRF(R) (Homogenous Time-Resolved Fluorescence) cAMP HiRange assay (Cisbio Bioassays, 62AM6PEJ). Presence of cAMP in the cell lysate disrupts binding between the Cryptate-labeled anti-cAMP and d2-labeled cAMP pair, leading to a decrease in TR-FRET signal. The libraries were screened at two doses (57microM and 11microM), followed by a confirmation of the hits at 7-point serial dilution in the range of final concentrations [57microM - 78nM]. Data were normalized to the controls for basal activity (buffer only) and 100% activity (5 nM porcine relaxin). The EC50 values were determined from concentration-response data modeled with the standard Hill equation. NCGC Assay Protocol Summary: HiHEK (Hawaiian HEK293 LGR7 stably transfected with human RXFP1) were grown in the following media: DMEM+10%FBS+Pen/Strep + Geneticin (1mg/ml). For the assay, the cells were seeded in DMEM+Pen/Strep (with no serum & selective antibiotics) at 2,100 cells/ 3microl/well with MultiDrop Combi dispenser (Thermo Scientific, Logan, UT) onto white tissue culture treated solid bottom1536-well plates (Greiner #789173-F) and allowed to attach/recover overnight at 37 degrees C, 5% CO2. Next, 23nl/well of compound solutions in DMSO were transferred into wells with a pintool (Kalypsis, San Diego, CA). […] EC80 (relaxin at 50pM final concentration) was dispensed to the rest of the plate except columns 1&2 which were used as a negative control (EC0, buffer only), 1microl/well also. The cells were stimulated by relaxin in the presence of compounds for 30 minutes at 37 degrees C, 5% CO2. The detection reagents were prepared individually by dilution in Lysis buffer (supplied with the assay kit) just prior to dispensing. 1microl/well of cAMP-d2 and 1microl/well anti-cAMP-Eu3+-Cryptate antibodies were added simultaneously with BioRAPTR FRDtrade mark Workstation (Beckman Coulter). The plates were incubated at ambient temperature for 30 minutes and, then, FRET signal was read on Envision plate reader (PerkinElmer, Waltham, MA), at wavelengths 340nm (excitation), 615nm & 665nm (emission of donor and acceptor channels respectively).
On the % scale 0 is the no-effect control and ±100 the full control effect.

Structure (SMILES) | activity change, negative = inhibition
CCOP(C)(=S)SCC(=O)NC(C)(CC)C(=O)O (stereo not given) | inactive: -11.2%
CP(=O)(Nc1ccc(SC(F)(F)F)cc1)Oc1ccc(F)cc1 (stereo not given) | inactive: -6.62%
C/C1=C2N=C(/C=C3N=C(/C(C)=C4\[N-][C@@](C)([C@@H]5N=C1[C@](C)(CCC(=O)NC[C@@H](C)OP(=O)([O-])O[C@H]1[C@@H](O)[C@@H](n6cnc7cc(C)c(C)cc76)O[C@@H]1CO)[C@H]5CC(N)=O)[C@@](C)(CC(N)=O)[C@@H]4CCC(N)=O)[C@@](C)(CC(N)=O)[C@@H]\3CCC(N)=O)C(C)(C)[C@@H]/2CCC(N)=O.[C-]#N.[Co+3] | inactive: 12.8%
Cc1ccccc1NP(C)(=O)Nc1ccccc1C | inactive: -13.7%
CP(=O)(Nc1ccc2c(c1)OCCO2)Oc1ccccc1 (stereo not given) | inactive: -3.89%
CN(C)CCOC(=O)C(O)(c1ccccc1)C1CCCCC1 (stereo not given) | inactive: -15.7%
COc1ccc(NP(C)(=O)Oc2ccccc2OC)cc1 (stereo not given) | inactive: -7.16%
COc1ccc(OP(C)(=O)Nc2cccc(Br)c2)cc1 (stereo not given) | inactive: 0.0664%
Cc1c(C(c2ccc3c(c2)OCO3)c2c(C)n(C)n(-c3ccccc3)c2=O)c(=O)n(-c2ccccc2)n1C.O=[N+]([O-])c1cc([N+](=O)[O-])c(O)c([N+](=O)[O-])c1 | inactive: -0.866%
O=[N+]([O-])c1ccc(OP2(=O)COCCO2)cc1 (stereo not given) | inactive: -14%
Cc1cc(-c2cccc3ccccc23)c(C)cn1.O=[N+]([O-])c1cc([N+](=O)[O-])c(O)c([N+](=O)[O-])c1 | inactive: -36.9%
CCOC(=O)c1ccc(NP(C)(=O)Oc2ccc(F)cc2)cc1 (stereo not given) | inactive: -10.3%
COc1ccc(OP(C)(=O)Nc2ccc(SC(F)(F)F)cc2)cc1 (stereo not given) | inactive: -33.9%
Cc1cccc([N+](=O)[O-])c1[N+](=O)[O-] | inactive: 21.3%
CP(=O)(Nc1ccccc1)Oc1ccc(F)cc1 (stereo not given) | inactive: -20.7%
Cc1c([N+](=O)[O-])cc([N+](=O)[O-])c(Br)c1[N+](=O)[O-] | inactive: -17.1%
CCN(CC)CCCOC(=O)C(O)(c1ccccc1)C1CCCCC1 (stereo not given) | inactive: -8.14%
CP(=O)(Nc1ccccc1F)Oc1ccccc1 (stereo not given) | inactive: -24.2%
CCOP(=O)(CC)Oc1ccc([N+](=O)[O-])cc1 (stereo not given) | inactive: 4.75%
O=C(OCCN1CCN(CCOCc2ccccc2)CC1)C(O)(c1ccccc1)c1ccccc1 | inactive: -10.6%
COc1ccc(OP(C)(=O)Nc2ccccn2)cc1 (stereo not given) | inactive: -12.5%
CN(C)CCOC(=O)C(O)(c1ccccc1)C1CCCC1 (stereo not given) | inactive: 3.84%

Structure (SMILES) | activity change, negative = inhibition
COc1ccccc1OP(C)(=O)Nc1ccc(Br)cc1 (stereo not given) | inactive: -2.66%
CP(=O)(Nc1ccccn1)Oc1ccccc1 (stereo not given) | inactive: 9.7%
COc1ccccc1OP(C)(=O)Nc1ccc(C)cc1C (stereo not given) | inactive: 11%
CCc1ccc(OP(C)(=O)O)cc1 | inactive: 2.48%
Cc1c(NP(C)(=O)Oc2ccc(C(C)C)cc2)c(=O)n(-c2ccccc2)n1C (stereo not given) | inactive: -2.49%
O=[N+]([O-])c1cc([N+](=O)[O-])c(Nc2ccccn2)c([N+](=O)[O-])c1 | inactive: -2.9%
COc1ccccc1OP(C)(=O)Nc1ccc(C)c(C)c1 (stereo not given) | inactive: -19.4%
COc1ccc(OP(C)(=O)Nc2ccccc2Br)cc1 (stereo not given) | inactive: -6.24%
Cc1cc(C)cc(OP(C)(=O)Nc2cccc(C(F)(F)F)c2)c1 (stereo not given) | inactive: -29.6%
CCCCCCCCCCCCCCCC1C[N+](C)(C)CCOP(C)(=O)O1 (stereo not given) | inactive: -15.4%
CP(=O)(Nc1ccc(Cl)cc1Cl)Oc1ccccc1 (stereo not given) | inactive: -15.6%
CP(=O)(OCCOc1ccccc1)OCCOc1ccccc1 | inactive: 6.96%
CP(=O)(OC12CC3CC(CC(C3)C1)C2)OC12CC3CC(CC(C3)C1)C2 | inactive: 16.4%
Nc1ccc2c(ccc3cccnc32)n1.O=[N+]([O-])c1cc([N+](=O)[O-])c(O)c([N+](=O)[O-])c1 | inactive: 7.73%
COc1ccccc1OP(C)(=O)Nc1c(C)n(C)n(-c2ccccc2)c1=O (stereo not given) | inactive: 14.6%
O=C(OCCCN1CCCC1)C(O)(c1ccccc1)C1CCCCC1 (stereo not given) | inactive: -2.77%
OCCSCCO | inactive: -7.83%
CP(=O)(Oc1ccccc1)N1CCOC1=O (stereo not given) | inactive: -3.24%
CCc1ccc(OP(C)(=O)Nc2cccnc2)cc1 (stereo not given) | inactive: -9.66%
CCN(CC)CC(O)COC(=O)C(O)(c1ccccc1)C1CCCCC1 (stereo not given) | inactive: -6.69%
COc1ccc(OP(C)(=O)Nc2ccc(Br)cc2)cc1 (stereo not given) | inactive: -5.66%
CN(C)C(=O)c1c([N+](=O)[O-])cc([N+](=O)[O-])cc1[N+](=O)[O-] | inactive: 5.47%

Structure (SMILES) | activity change, negative = inhibition
COc1ccccc1OP(C)(=O)Nc1ccccc1Br (stereo not given) | inactive: -20.2%
CC(C)(C)c1ccc(OP(C)(=O)O)cc1 | inactive: 4.14%
CP(=O)(Nc1ccc(Cl)cc1)Oc1ccc(F)cc1 (stereo not given) | inactive: -6.04%
CP(=O)(NC(=O)Nc1ccccc1)Oc1ccccc1 (stereo not given) | inactive: -2.08%
CCc1ccc(OP(C)(=O)N2CCN(c3ccc([N+](=O)[O-])cc3)CC2)cc1 (stereo not given) | inactive: -10.8%
Cc1cc(C)cc(OP(C)(=O)Nc2ccc(SC(F)(F)F)cc2)c1 (stereo not given) | inactive: -23.5%
CP(=O)(Nc1ccc(SC(F)(F)F)cc1)Oc1ccc(Cl)cc1 (stereo not given) | inactive: -15%
Cc1cccc(C)c1OP(C)(=O)Nc1ccc(SC(F)(F)F)cc1 (stereo not given) | inactive: -14.1%
CP(=O)(Oc1ccccc1)OC(c1ccccc1)C(F)(F)F (stereo not given) | inactive: 2.48%
CP(=O)(Nc1ccccn1)Oc1ccc(Cl)cc1 (stereo not given) | inactive: -1.38%
O=[N+]([O-])c1cc([N+](=O)[O-])c(O)c([N+](=O)[O-])c1.c1ccc(Oc2ccncc2)cc1 | inactive: -12.7%
CCOC(=O)c1ccc(NP(C)(=O)Oc2ccc(OC)cc2)cc1 (stereo not given) | inactive: -5.5%
CCOP(C)(=S)SCC(=O)NC(C)C(=O)O (stereo not given) | inactive: -10.8%
CP(=O)(Nc1ccccc1Br)Oc1ccccc1 (stereo not given) | inactive: 2.25%
COc1ccccc1OP(C)(=O)Nc1ccccc1 (stereo not given) | inactive: -5.57%
CP(=S)(Nn1cnnc1)Oc1ccccc1 (stereo not given) | inactive: -9.88%
O=[N+]([O-])c1ccc2c(c1)C=Nc1ccccc1O2 | inactive: -1.52%
Cc1cccc(C)c1OP(C)(N)=O (stereo not given) | inactive: -6.8%
Cc1cc(C)cc(OP(C)(N)=O)c1 (stereo not given) | inactive: -6.56%
COc1ccccc1OP(C)(=O)Nc1cc(Cl)ccc1C (stereo not given) | inactive: -12.8%
COc1ccc(OP(C)(=O)Nc2cccc(F)c2)cc1 (stereo not given) | inactive: -10.7%
COc1ccccc1OP(C)(=O)Nc1ccc(C)cc1 (stereo not given) | inactive: 0.662%

Structure (SMILES) | activity change, negative = inhibition
Cc1ccc(NP(C)(=O)Oc2ccccc2)c(C)c1 (stereo not given) | inactive: 8.52%
CCOC(=O)c1ccc(NP(C)(=O)Oc2ccccc2)cc1 (stereo not given) | inactive: -1.43%
CCN(CC)CCCOC(=O)C(O)(c1ccccc1)c1ccccc1 | inactive: -4.43%
CCOC(=O)c1ccc(NP(C)(=O)Oc2cc(C)cc(C)c2)cc1 (stereo not given) | inactive: 2.93%
Cc1cc(C)cc(OP(C)(=O)Nc2ccc(C)cc2C)c1 (stereo not given) | inactive: -14.1%
COc1ccccc1OP(C)(=O)Nc1cccc(Br)c1 (stereo not given) | inactive: 4.26%
Cc1ccc(C)c(NP(C)(=O)Oc2ccccc2)c1 (stereo not given) | inactive: 4.69%
Cc1cc(C)cc(OP(C)(=O)Nc2ccccn2)c1 (stereo not given) | inactive: -2.94%
CP(=O)(Nc1cccc(Br)c1)Oc1ccccc1 (stereo not given) | inactive: -2.77%
O=[N+]([O-])c1cccc([N+](=O)[O-])c1 | inactive: 32.2%
CC1=NCCc2c1[nH]c1ccccc21.O=[N+]([O-])c1cc([N+](=O)[O-])c(O)c([N+](=O)[O-])c1 | inactive: -11.9%
O=[N+]([O-])c1cc([N+](=O)[O-])c(Nc2nnnn2CCO)c([N+](=O)[O-])c1 | inactive: 7.3%
CCCOc1ccc(NP(C)(=O)Oc2ccc(Cl)cc2)cc1 (stereo not given) | inactive: -21.4%
CP(=O)(Nc1ccc(SC(F)(F)F)cc1)Oc1ccccc1 (stereo not given) | inactive: -25.4%
CN1CCCCC1COC(=O)C1(O)c2ccccc2CCc2ccccc21 (stereo not given) | inactive: -24.3%
COc1ccccc1OP(C)(=O)Nc1c(C)cccc1C (stereo not given) | inactive: 3.61%
O=[N+]([O-])c1cc([N+](=O)[O-])c(-n2nnc3ccccc32)c([N+](=O)[O-])c1 | inactive: 16.6%
Cc1nc2ccc3ccccc3c2s1.O=[N+]([O-])c1cc([N+](=O)[O-])c(O)c([N+](=O)[O-])c1 | inactive: 1.44%
O=[N+]([O-])c1cc([N+](=O)[O-])c(-c2cnn(-c3ccccc3)c2)c([N+](=O)[O-])c1 | inactive: 9.55%
